The record followed here is US20210246208A1, “COMBINED INHIBITION OF PD-1/PD-L1, TGFB AND DNA-PK FOR THE TREATMENT OF CANCER” (MERCK PATENT GMBH, priority 2018, published 2021).

Test [1] concerns EMT, fibrosis and VEGF pathway gene signatures in 4T1 tumor tissue. Briefly: RNAseq gene signatures of 4T1 tumor tissue (Example 3G). Type of test: in vivo, BALB/c mice. The following applies: tumors harvested day 6. The method, then:
Tumor tissues were harvested at Day 6 for RNAseq analysis. Gene expression signatures associated with (A) EMT, (B) fibrosis, and (C) VEGF pathway signatures are presented as box plots. Signature scores are defined as the mean log2 (fold change) among all genes in the signature.
RNAseq was performed with Qiagen targeted RNAseq panels consisting of 1278 total genes. EMT and fibrosis gene signatures were based on Qiagen gene lists and the VEGF pathway signature was based on the Biocarta VEGF pathway in Broad's Canonical Pathways. For these gene sets, signature scores are defined as the mean log2 (fold-change) among all genes in each gene signature. These were calculated by adding a pseudocount of 0.5 TPM to all genes and samples, determining the log2 (TPM), then subtracting the median log 2-TPM for each gene across all samples from the log2-TPM for each gene. Signature scores for gene sets are shown as boxplots.

In another test the test system is 4T1 mammary tumors. Description: 4T1 mammary tumor model, tumor volume and survival (Example 3A). The following applies: radiation 8 Gy day 0-3, M3814 150 mg/kg p.o. q.d. day 0-14.

“anti-PD-L1/TGFβ Trap: full human IgG1 monoclonal antibody against human PD-L1 fused to the extracellular domain of human TGFβ receptor II (SEQ ID NO: 10 and 9)”: in test [1], the “EMT signature score” value is reported as “significantly reduced the EMT signature score relative to isotype control” and the “fibrosis signature score” value was “did not have a significant decrease in the fibrosis signature”. In addition, in the test on 4T1 mammary tumors (concurrent dosing, day 10, Trap 492 μg day 0, 2, 4), the “tumor volume” value is recorded as “significantly decreased tumor volume relative to isotype control”. The “tumor volume” value in the test on 4T1 mammary tumors (sequential dosing, day 11, Trap 492 μg day 4, 6, 8) was “decreased tumor volume relative to isotype control”.
